Where two headings read alike, the source gives them in different places.
Legend:
[1] = target: MAO-B (Rattus norvegicus, UniProt P19643)
Source text: (§1) On days 8-9, rats were trained to adjust to the peroral (“p.o.”) procedure by being fed with vehicle. […] The administration began on day 10 and continued throughout the entire procedure. Rats were fed at least one hour before being put into experimental chambers, except during preexposure and conditioning days (days 19 and 20) during which rats were fed exactly two hours before being put into experimental chambers.

Sequences of proteins named here, by UniProt entry; tags and fusion partners are left off.
UniProt P19643, whole entry: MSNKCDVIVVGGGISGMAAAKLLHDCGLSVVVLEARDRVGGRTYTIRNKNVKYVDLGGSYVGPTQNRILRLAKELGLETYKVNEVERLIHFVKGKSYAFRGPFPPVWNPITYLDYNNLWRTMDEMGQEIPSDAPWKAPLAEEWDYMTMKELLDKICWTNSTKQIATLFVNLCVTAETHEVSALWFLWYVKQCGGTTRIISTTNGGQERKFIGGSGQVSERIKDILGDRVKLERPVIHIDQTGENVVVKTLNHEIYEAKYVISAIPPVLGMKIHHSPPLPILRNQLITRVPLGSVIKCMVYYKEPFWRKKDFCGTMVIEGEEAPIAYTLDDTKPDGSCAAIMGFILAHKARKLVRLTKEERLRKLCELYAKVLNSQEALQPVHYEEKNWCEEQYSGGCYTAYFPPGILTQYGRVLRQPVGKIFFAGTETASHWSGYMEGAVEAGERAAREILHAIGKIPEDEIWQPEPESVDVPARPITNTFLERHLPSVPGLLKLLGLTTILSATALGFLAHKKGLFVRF
UniProt P21396, whole entry: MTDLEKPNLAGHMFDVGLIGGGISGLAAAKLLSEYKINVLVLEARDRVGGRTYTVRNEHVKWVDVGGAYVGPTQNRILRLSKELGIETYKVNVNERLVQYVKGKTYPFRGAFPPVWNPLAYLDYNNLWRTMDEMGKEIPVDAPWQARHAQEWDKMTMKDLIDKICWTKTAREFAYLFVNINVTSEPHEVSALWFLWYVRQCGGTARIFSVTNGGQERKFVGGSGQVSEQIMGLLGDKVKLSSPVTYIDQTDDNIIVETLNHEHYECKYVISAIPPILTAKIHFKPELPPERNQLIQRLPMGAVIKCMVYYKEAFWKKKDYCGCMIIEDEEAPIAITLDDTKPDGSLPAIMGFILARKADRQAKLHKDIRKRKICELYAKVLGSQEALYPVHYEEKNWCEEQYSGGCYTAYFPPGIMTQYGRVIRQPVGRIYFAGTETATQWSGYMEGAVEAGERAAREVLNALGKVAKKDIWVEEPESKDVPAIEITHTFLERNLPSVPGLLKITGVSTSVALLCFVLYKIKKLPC

[2] = target: MAO-A (Rattus norvegicus, UniProt P21396)
Source text: as §1

[3] = MK-801 and ladostigil tartrate 25 mg/kg p.o. chronic
[4] = MK-801 and ladostigil tartrate 37.5 mg/kg p.o. chronic
[5] = saline and ladostigil tartrate 25 mg/kg p.o. chronic
[6] = saline and ladostigil tartrate 37.5 mg/kg p.o. chronic

R(+)-6-(N-methyl, N-ethyl-carbamoyloxy)-N′-propargyl-1-aminoindan ½ tartrate [ladostigil tartrate]
Brain MAO-B % inhibition [1, 3]: 83%
Brain MAO-B dpm/sd [1, 3]: 1485 ± 241 dpm
Brain MAO-B % inhibition [1, 4]: 89%
Brain MAO-B dpm/sd [1, 4]: 1007 ± 296 dpm
Brain MAO-B % inhibition [1, 5]: 84%
Brain MAO-B dpm/sd [1, 5]: 1501 ± 183 dpm
Brain MAO-B % inhibition [1, 6]: 89%
Brain MAO-B dpm/sd [1, 6]: 1056 ± 171 dpm
Brain MAO-A % inhibition [2, 3]: 75%
Brain MAO-A dpm/sd [2, 3]: 2366 ± 291 dpm
Brain MAO-A % inhibition [2, 4]: 84%
Brain MAO-A dpm/sd [2, 4]: 1494 ± 387 dpm
Brain MAO-A % inhibition [2, 5]: 74%
Brain MAO-A dpm/sd [2, 5]: 2459 ± 301 dpm
Brain MAO-A % inhibition [2, 6]: 83%
Brain MAO-A dpm/sd [2, 6]: 1582 ± 276 dpm

From patent US20070232691A1, “Use of ladostigil for the treatment of schizophrenia” (priority 2006, published 2007)
